# In PMC10573892, “β-Lactam TRPM8 Antagonists Derived from Phe-Phenylalaninol Conjugates: Structure–Activity Relationships and Antiallodynic Activity” (International Journal of Molecular Sciences, 2023):
# Chains of the proteins cited; added tags and fusions are not shown.
# UniProt Q8R455, whole entry: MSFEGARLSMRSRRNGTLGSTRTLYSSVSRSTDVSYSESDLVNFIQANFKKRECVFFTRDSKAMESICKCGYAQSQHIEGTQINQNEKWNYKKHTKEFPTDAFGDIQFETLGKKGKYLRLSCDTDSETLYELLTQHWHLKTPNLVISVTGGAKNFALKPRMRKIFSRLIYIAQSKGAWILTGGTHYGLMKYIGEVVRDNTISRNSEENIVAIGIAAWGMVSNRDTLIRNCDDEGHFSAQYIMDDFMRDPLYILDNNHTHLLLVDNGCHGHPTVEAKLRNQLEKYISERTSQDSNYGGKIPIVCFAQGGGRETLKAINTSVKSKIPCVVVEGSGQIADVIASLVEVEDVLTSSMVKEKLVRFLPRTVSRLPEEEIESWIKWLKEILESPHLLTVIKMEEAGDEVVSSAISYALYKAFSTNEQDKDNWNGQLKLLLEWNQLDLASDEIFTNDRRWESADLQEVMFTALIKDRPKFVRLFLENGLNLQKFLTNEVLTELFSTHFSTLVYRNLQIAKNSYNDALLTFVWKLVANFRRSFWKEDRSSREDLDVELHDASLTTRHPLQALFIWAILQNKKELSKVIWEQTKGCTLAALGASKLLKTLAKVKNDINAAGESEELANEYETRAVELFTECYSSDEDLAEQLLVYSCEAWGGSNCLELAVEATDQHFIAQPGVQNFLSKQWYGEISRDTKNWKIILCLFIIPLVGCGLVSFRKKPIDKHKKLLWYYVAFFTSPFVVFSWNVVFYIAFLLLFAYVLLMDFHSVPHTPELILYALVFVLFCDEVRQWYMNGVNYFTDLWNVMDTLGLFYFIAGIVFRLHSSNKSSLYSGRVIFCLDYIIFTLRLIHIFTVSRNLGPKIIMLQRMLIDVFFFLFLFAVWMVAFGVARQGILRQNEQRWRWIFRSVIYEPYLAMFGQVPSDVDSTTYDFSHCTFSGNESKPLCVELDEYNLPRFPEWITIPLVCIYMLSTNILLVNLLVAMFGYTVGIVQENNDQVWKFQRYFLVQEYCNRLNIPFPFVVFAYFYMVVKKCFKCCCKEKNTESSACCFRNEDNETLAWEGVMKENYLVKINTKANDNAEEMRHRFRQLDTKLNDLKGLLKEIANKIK
# pIC50: −log10 of the molar value.
# Target: rat TRPM8 channel (rTRPM8) (Rattus norvegicus, UniProt Q8R455)
# Assay: Ca2+ microfluorimetry, menthol-induced Ca2+ entry in HEK293 cells overexpressing rTRPM8
# Settings: Table 2; rTRPM8, HEK293, activation by 100 µM menthol
row,SMILES,pIC50
1,CC(C)CNC(=O)C1(Cc2ccccc2)CC(=O)N1C[C@H](Cc1ccccc1)NCc1ccc(-c2ccccc2)cc1 (stereo partly shown),5.34
2,COC(=O)C1(Cc2ccccc2)CC(=O)N1C[C@H](Cc1ccccc1)NCc1cccc(C)c1 (stereo partly shown),5.45
3,CC(C)CNC(=O)C1(Cc2ccccc2)CC(=O)N1C[C@H](Cc1ccccc1)NCc1cccc(Oc2ccccc2)c1 (stereo partly shown),5.09
4,CC(C)CNC(=O)C1(Cc2ccccc2)CC(=O)N1C[C@H](Cc1ccccc1)NCc1cccc(I)c1 (stereo partly shown),5.42
5,CC(C)CNC(=O)C1(Cc2ccccc2)CC(=O)N1C[C@H](Cc1ccccc1)NCc1ccc(F)cc1 (stereo partly shown),5.08
6,Cc1cccc(CN[C@@H](Cc2ccccc2)CN2C(=O)CC2(Cc2ccccc2)C(=O)NCC(C)C)c1 (stereo partly shown),5.40
7,COc1cccc(CN[C@@H](Cc2ccccc2)CN2C(=O)CC2(Cc2ccccc2)C(=O)NCC(C)C)c1 (stereo partly shown),5.35
8,CC(C)CNC(=O)C1(Cc2ccccc2)CC(=O)N1C[C@H](Cc1ccccc1)NCc1cccc(F)c1 (stereo partly shown),5.29
9,COC(=O)C1(Cc2ccccc2)CC(=O)N1C[C@H](Cc1ccccc1)NCc1ccc(C)cc1 (stereo partly shown),5.41
10,CC(C)CNC(=O)C1(Cc2ccccc2)CC(=O)N1C[C@H](Cc1ccccc1)NCc1cccc(C#N)c1 (stereo partly shown),4.92
11,COC(=O)C1(Cc2ccccc2)CC(=O)N1C[C@H](Cc1ccccc1)NCc1ccccc1 (stereo partly shown),5.40

# These reach a higher pIC50. Values come first.
row,pIC50,SMILES
1,5.48,CC(C)CNC(=O)C1(Cc2ccccc2)CC(=O)N1C[C@H](Cc1ccccc1)NCc1cccc(Br)c1 (stereo partly shown)
2,5.49,CC(C)CNC(=O)C1(Cc2ccccc2)CC(=O)N1C[C@H](Cc1ccccc1)NCc1cccc(OCc2ccccc2)c1 (stereo partly shown)
3,5.59,COC(=O)C1(Cc2ccccc2)CC(=O)N1C[C@H](Cc1ccccc1)NCc1ccc2ccccc2c1 (stereo partly shown)
4,5.59,CC(C)CNC(=O)C1(Cc2ccccc2)CC(=O)N1C[C@H](Cc1ccccc1)NCc1cccc(Cl)c1 (stereo partly shown)
5,5.67,CC(C)CNC(=O)C1(Cc2ccccc2)CC(=O)N1C[C@H](Cc1ccccc1)NCc1cccc([N+](=O)[O-])c1 (stereo partly shown)
6,5.69,CC(C)CNC(=O)C1(Cc2ccccc2)CC(=O)N1C[C@H](Cc1ccccc1)NCc1cccc(-c2ccccc2)c1 (stereo partly shown)
7,5.74,CC(C)CNC(=O)C1(Cc2ccccc2)CC(=O)N1C[C@H](Cc1ccccc1)NCc1ccc2ccccc2c1 (stereo partly shown)
8,5.96,COC(=O)C1(Cc2ccccc2)CC(=O)N1C[C@H](Cc1ccccc1)NCc1cccc(Br)c1 (stereo partly shown)
